The list shows a part of the results, in another mix than the full data. Some results for these compounds are left out of this collection, so the calls shown say nothing about other tests. The source made the active and inactive calls.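 Rule for the calls: active = inhibition above a per-campaign cutoff, the mean of all compounds plus 3 SD (cut at about 60% in these data); inactive = the rest.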

The chains behind the UniProt entries cited, without tags or fusion partners.
UniProt Q9Y6Q9, whole entry: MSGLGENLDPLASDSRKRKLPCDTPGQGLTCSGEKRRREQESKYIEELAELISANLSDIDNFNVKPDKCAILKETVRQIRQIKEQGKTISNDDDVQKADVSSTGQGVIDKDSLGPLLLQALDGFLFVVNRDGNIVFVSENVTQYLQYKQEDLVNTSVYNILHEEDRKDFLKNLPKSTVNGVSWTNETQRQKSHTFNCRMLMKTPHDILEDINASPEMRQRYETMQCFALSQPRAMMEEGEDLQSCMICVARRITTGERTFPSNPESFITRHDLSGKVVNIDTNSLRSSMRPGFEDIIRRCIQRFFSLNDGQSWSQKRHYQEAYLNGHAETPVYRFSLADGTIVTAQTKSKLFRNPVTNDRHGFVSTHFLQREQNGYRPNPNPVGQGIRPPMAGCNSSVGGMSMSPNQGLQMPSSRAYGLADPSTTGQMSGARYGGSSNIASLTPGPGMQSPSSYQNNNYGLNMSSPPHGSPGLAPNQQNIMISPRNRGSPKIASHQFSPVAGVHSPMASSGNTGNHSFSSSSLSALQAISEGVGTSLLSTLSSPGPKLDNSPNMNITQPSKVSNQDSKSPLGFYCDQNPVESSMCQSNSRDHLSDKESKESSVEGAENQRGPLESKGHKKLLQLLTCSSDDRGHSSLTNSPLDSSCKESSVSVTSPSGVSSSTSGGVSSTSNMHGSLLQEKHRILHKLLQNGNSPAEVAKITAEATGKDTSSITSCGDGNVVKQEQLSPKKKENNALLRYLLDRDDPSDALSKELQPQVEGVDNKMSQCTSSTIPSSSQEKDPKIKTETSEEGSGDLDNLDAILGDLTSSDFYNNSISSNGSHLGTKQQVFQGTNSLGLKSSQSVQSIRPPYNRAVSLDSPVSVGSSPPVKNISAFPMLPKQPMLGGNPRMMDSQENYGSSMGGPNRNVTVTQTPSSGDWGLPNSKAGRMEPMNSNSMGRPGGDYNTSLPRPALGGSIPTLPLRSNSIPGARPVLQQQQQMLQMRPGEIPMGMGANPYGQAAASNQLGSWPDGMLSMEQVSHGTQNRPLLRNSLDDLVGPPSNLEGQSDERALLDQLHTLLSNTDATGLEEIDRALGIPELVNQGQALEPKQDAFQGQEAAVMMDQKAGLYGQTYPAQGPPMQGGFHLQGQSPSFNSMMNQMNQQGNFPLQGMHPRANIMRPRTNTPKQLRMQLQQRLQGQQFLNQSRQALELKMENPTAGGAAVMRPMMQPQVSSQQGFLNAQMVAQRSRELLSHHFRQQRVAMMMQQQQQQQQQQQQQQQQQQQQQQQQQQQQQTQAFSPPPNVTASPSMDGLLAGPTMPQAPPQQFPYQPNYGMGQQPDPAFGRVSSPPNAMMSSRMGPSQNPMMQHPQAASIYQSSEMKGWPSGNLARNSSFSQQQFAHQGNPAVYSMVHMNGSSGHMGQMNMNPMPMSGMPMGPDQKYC

Data on 26 compounds can be found in PubChem BioAssay AID588352 (The Scripps Research Institute Molecular Screening Center, 2011).

For the assay, the target named is Nuclear receptor coactivator 3 (Homo sapiens) (UniProt Q9Y6Q9). As to the kind of experiment: SRC3 coactivator transcriptional activity inhibitors, primary screen, cell-based, luminescence (AID 588352).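 Note: 0% = DMSO-treated cells and 100% = gossypol-treated cells at 36 µM; higher means less SRC3-driven luciferase light from the GAL4 reporter.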 The settings on record: HEK293 GAL4-SRC3 luciferase reporter, at 3.6 µM, hits give high values. On the technique in general: A reporter such as luciferase makes a cellular process visible.
For orientation: inhibition means the drop in the measured response relative to a control, in per cent. On to `CCN1CCCC(OC(=O)C2(O)c3ccccc3C=Cc3ccccc32)C1` (stereo unspecified), for which the inhibition is inactive: 11.2%.

For the compound `Cc1cc(C(=O)NCC2(N3CCCCC3)CCCCC2)ccc1[N+](=O)[O-]`, the inhibition was inactive: -13.7%.

Consider `O=C(NCC1(N2CCCCC2)CCCCC1)c1cccc(Br)c1`, for which the inhibition was inactive: -3.42%.

As for `COc1ccc(C(=O)NCC2(N(C)C)CCCCC2)cc1`, the inhibition is inactive: -4.47%.

With `C=CCN1CCN(CCOC(=O)C(O)(c2ccccc2)c2ccccc2)CC1`, the inhibition was inactive: 1.03%.

For `O=C(NCC1(N2CCCCC2)CCCCC1)c1cc(F)c(F)cc1Cl`, the inhibition is inactive: 4.47%.

For the compound `Cc1ccccc1C(=O)NCC1(N2CCCCC2)CCCCC1`, the inhibition was inactive: -1.64%.

With `CN(C)c1ccc(C(=O)NCC2(N(C)C)CCCCC2)cc1`, the inhibition is inactive: -50.5%.

On to `CN(C)C1CCCC1OC(=O)C(O)(c1ccccc1)c1ccccc1` (stereo unspecified), for which the inhibition is inactive: 0.86%.

Consider `Cc1ccc(C(=O)NCC2(N3CCCCC3)CCCCC2)cc1`, for which the inhibition is inactive: -14%.

Take `CC(C)N1C(=O)CC2(CCN(CCOC(=O)C(O)(c3ccccc3)c3ccccc3)CC2)C1=O`: the inhibition was inactive: 22.6%.

On to `CCN(CC)CC(C)C(C)OC(=O)C(O)(c1ccccc1)c1ccccc1` (stereo unspecified), for which the inhibition is inactive: 5.46%.

For the compound `COc1cc(SC)ccc1C(=O)NCC1(N(C)C)CCCCC1`, the inhibition was inactive: -5.32%.

For `CN1[C@@H]2CC[C@H]1CC(OC(=O)C(O)(c1ccccc1)c1ccccc1)C2` (stereo partly specified), the inhibition was inactive: -2.72%.

As to `O=C(NCC1(N2CCCCC2)CCCCC1)c1cc([N+](=O)[O-])ccc1Cl`, the inhibition was inactive: 26.5%.

For `CN(C)c1cccc(C(=O)NCC2(N(C)C)CCCCC2)c1`, the inhibition was inactive: 19.2%.

For `CC(C)Oc1ccc(C(=O)NCC2(N(C)C)CCCCC2)cc1`, the inhibition is inactive: -19.3%.

In the case of `O=C(OCCN1CCCC1)C(O)(c1ccccc1)c1ccccc1`, the inhibition was inactive: -21.4%.

Turning to `COc1ccc(Br)c(C(=O)NCC2(N3CCCCC3)CCCCC2)c1`, the inhibition was inactive: 4.38%.

`C=C(C)C#CC(O)(C(=O)OC1CCN(C)CC1)c1ccccc1` (stereo unspecified): the inhibition was inactive: -0.86%.

Turning to `O=C(OC1CN2CCC1CC2)C(CO)(c1ccccc1)c1ccccc1` (stereo unspecified), the inhibition was inactive: 1.69%.

`O=C(NCC1(N2CCCCC2)CCCCC1)c1cccc(Cl)c1`: the inhibition was inactive: -7.1%.

On to `COc1cccc(C(=O)NCC2(N3CCCCC3)CCCCC2)c1`, for which the inhibition was inactive: -7.72%.

For `COc1ccc(Cl)cc1C(=O)NCC1(N(C)C)CCCCC1`, the inhibition is inactive: -11.3%.

With `COc1cc(C(=O)NCC2(N(C)C)CCCCC2)c([N+](=O)[O-])cc1OC`, the inhibition was inactive: -4.55%.

Take `CN(C)C1(CNC(=O)c2ccc(Br)cc2)CCCCC1`: the inhibition is inactive: -1.61%.
